Earlier results on 1 molecule are cited in US20070148100A1, “Nanoparticulate aripiprazole formulations” (priority 2005, published 2007).

For this data set the following is noted: in vivo.

As for `O=C1CCc2ccc(OCCCCN3CCN(c4cccc(Cl)c4Cl)CC3)cc2N1` [Aripiprazole, 7-[4-[4-(2,3-dichlorophenyl)-1-piperazinyl]butoxy]-3,4-dihydrocarbostyril], the “time to achieve steady state plasma concentrations” value is listed as “about 14 days”.
